From patent US11208376B2, “Use of a metal supplement in animal feed” (Nouryon Chemicals International B.V., priority 2009, dated 2021)

Tests used:
[1] = Precipitation test of copper sources with two-fold molar excess of phytic acid, soluble Cu by FAAS; assay type: physicochemical; details: for Soluble Cu(II) after subjecting complexed or chelated Cu(II) to a two-fold molar excess of phytic acid: one day at ambient temperature
Procedure: The following 3 concentrations of the final metal concentration were tested, i.e. high (H) at 25 mmol/kg, medium (M) at 5 mmol/kg, and low (L) at 0.5 mmol/kg. For each concentration and pH a separate phytic acid stock solution was prepared by diluting the calculated amount of phytic acid with de-mineralized water, setting the pH with diluted NH4OH solutions, and filling up with demineralized water up to the calculated amount. […] The pH was increased with NH4OH 2.5% up to pH 4.17. • Cu-GLDA-Na2 • 0.125 mol/kg, 12.608 g CuSO4.5H2O, and 0.1275 mol/kg, 36.619 g GL-45-SLA. […] The pH was adjusted to 4.97 with 0.5 M H2SO4. Then an equal number of 0.0125 mol/kg solutions were prepared by diluting the above solutions with demineralized water. […] On all 4 zinc-containing and 3 copper-containing solutions in total 6 precipitation tests were carried out, i.e. at levels H, M, and L and for each level at pH=4 and at pH=6. These tests were marked H4, H6, M4, M6, L4, and L6, respectively. In total 42 samples were obtained in this way. After standing for one day the precipitate was removed and the mother liquor was analyzed for its zinc or copper content by FAAS (Flame Atomic Absorption Spectroscopy). […] The total weight was exactly determined again. The 50 ml test tubes were filled according to Table 1 below. [table]

[2] = Precipitation test of zinc sources with two-fold molar excess of phytic acid, soluble Zn by FAAS; assay type: physicochemical; details: for Soluble Zn(II) after subjecting complexed or chelated Zn(II) to a two-fold molar excess of phytic acid: one day at ambient temperature
Procedure: The following 3 concentrations of the final metal concentration were tested, i.e. high (H) at 25 mmol/kg, medium (M) at 5 mmol/kg, and low (L) at 0.5 mmol/kg. For each concentration and pH a separate phytic acid stock solution was prepared by diluting the calculated amount of phytic acid with de-mineralized water, setting the pH with diluted NH4OH solutions, and filling up with demineralized water up to the calculated amount. […] The pH was not adjusted any further. Then an equal number of 0.0125 mol/kg solutions were prepared by diluting the above solutions with demineralized water. […] On all 4 zinc-containing and 3 copper-containing solutions in total 6 precipitation tests were carried out, i.e. at levels H, M, and L and for each level at pH=4 and at pH=6. These tests were marked H4, H6, M4, M6, L4, and L6, respectively. In total 42 samples were obtained in this way. After standing for one day the precipitate was removed and the mother liquor was analyzed for its zinc or copper content by FAAS (Flame Atomic Absorption Spectroscopy). […] The total weight was exactly determined again. The 50 ml test tubes were filled according to Table 1 below.

[3] = H4: pH 4, metal 25 mmol/kg, phytic acid 50 mmol/kg
[4] = H6: pH 6, metal 25 mmol/kg, phytic acid 50 mmol/kg
[5] = L4: pH 4, metal 0.5 mmol/kg, phytic acid 1 mmol/kg
[6] = L6: pH 6, metal 0.5 mmol/kg, phytic acid 1 mmol/kg
[7] = M4: pH 4, metal 5 mmol/kg, phytic acid 10 mmol/kg
[8] = M6: pH 6, metal 5 mmol/kg, phytic acid 10 mmol/kg
[9] = levels H, M, L, result in words

## Cu(Lysine)2
[1]; [3]
  Soluble Cu(II) after subjecting complexed or chelated Cu(II) to a two-fold molar excess of phytic acid: 103 % (mol/mol)
[1]; [4]
  Soluble Cu(II) after subjecting complexed or chelated Cu(II) to a two-fold molar excess of phytic acid: 102 % (mol/mol)
[1]; [5]
  Soluble Cu(II) after subjecting complexed or chelated Cu(II) to a two-fold molar excess of phytic acid: 99 % (mol/mol)
[1]; [6]
  Soluble Cu(II) after subjecting complexed or chelated Cu(II) to a two-fold molar excess of phytic acid: 97 % (mol/mol)
[1]; [7]
  Soluble Cu(II) after subjecting complexed or chelated Cu(II) to a two-fold molar excess of phytic acid: 98 % (mol/mol)
[1]; [8]
  Soluble Cu(II) after subjecting complexed or chelated Cu(II) to a two-fold molar excess of phytic acid: 98 % (mol/mol)
[1]; [9]
  Appearance (clear solution or precipitate) of copper source combined with phytic acid: clear solution

## Zn(Lysine)2
[2]; [3]
  Soluble Zn(II) after subjecting complexed or chelated Zn(II) to a two-fold molar excess of phytic acid: 22* % (mol/mol)
[2]; [4]
  Soluble Zn(II) after subjecting complexed or chelated Zn(II) to a two-fold molar excess of phytic acid: 38* % (mol/mol)
[2]; [5]
  Soluble Zn(II) after subjecting complexed or chelated Zn(II) to a two-fold molar excess of phytic acid: 95 % (mol/mol)
[2]; [6]
  Soluble Zn(II) after subjecting complexed or chelated Zn(II) to a two-fold molar excess of phytic acid: 37 % (mol/mol)
[2]; [7]
  Soluble Zn(II) after subjecting complexed or chelated Zn(II) to a two-fold molar excess of phytic acid: 49* % (mol/mol)
[2]; [8]
  Soluble Zn(II) after subjecting complexed or chelated Zn(II) to a two-fold molar excess of phytic acid: 14* % (mol/mol)
[2]; [9]
  Appearance (clear solution or precipitate) of zinc source combined with phytic acid: immediately a precipitate was formed

Marks after values point to notes of the source that are not given here.
